The target of this assay is Adenosine receptor A3 (Homo sapiens, UniProt P0DMS8). The assay is described as follows: Displacement of [3H]MRE3008-F20 from human adenosine A3 receptor expressed in CHO cells after 120 mins. The class given is cell-based. (Loss of bound radioactivity is the signal in a displacement assay; it reports binding, not function.)

Amino acid sequences for entries named in this document (tags omitted).
UniProt P0DMS8, whole entry: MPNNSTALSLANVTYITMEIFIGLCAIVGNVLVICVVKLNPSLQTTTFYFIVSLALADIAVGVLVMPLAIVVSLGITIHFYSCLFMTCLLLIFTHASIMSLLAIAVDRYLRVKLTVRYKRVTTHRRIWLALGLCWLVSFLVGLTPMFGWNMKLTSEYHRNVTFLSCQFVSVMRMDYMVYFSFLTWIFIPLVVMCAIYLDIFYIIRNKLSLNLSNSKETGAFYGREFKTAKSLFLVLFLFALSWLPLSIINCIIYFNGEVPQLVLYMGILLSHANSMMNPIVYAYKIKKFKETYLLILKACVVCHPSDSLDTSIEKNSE

Broadly, the Ki is a dissociation constant, usually derived from enzyme kinetics or from competition with a known ligand. A low value points to tighter binding.

`CCCn1cc2c(nc(NC(=O)Nc3ccc(OC)cc3)n3nc(-c4ccco4)nc23)n1` had a Ki of 603 pM.

Values taken from ChEMBL document CHEMBL1641384, “QSAR of adenosine receptor antagonists: Exploring physicochemical requirements for binding of pyrazolo[4,3-e]-1,2,4-triazolo[1,5-c]pyrimidine derivatives with human adenosine A(3) receptor subtype” (Bioorg Med Chem Lett, 2011).
